Apparent affinities of Ab-91 variants for a coronavirus HR2 peptide

Source: Engelhart et al. 2022 (doi:10.1038/s41597-022-01779-4), MIT Lincoln Laboratory and A-Alpha Bio; data file from the FLAb repository.

Target peptide (SARS-CoV-2 spike, HR2 region): PDVDLGDISGINAS

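The starting antibody came from a phage panning campaign against this peptide. Variants in AAYL51 differ from the parent at up to three CDR positions; double and triple changes were sampled at random. In AlphaSeq, yeast of one mating type display the scFv and yeast of the other type display the target. The frequency of each diploid, read from paired DNA barcodes, reflects how well the two displayed proteins bind. Each replicate has its own calibration line, from reference interactions of the BCL2 family. Each pool was mated in three replicate cultures.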

Ab-91 is the parent antibody, in scFv form: VL, then three GGGGS repeats, then VH. The light chain is unchanged in all variants.
VL: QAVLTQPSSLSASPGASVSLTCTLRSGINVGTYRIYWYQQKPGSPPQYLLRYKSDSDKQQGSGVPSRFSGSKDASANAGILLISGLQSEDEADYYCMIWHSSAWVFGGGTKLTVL
VH: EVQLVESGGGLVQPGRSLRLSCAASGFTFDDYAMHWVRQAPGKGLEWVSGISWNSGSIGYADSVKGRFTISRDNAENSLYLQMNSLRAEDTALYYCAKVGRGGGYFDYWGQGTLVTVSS

Changes read parent residue, position, new residue, counted from the first residue of the VH shown. Affinities are written as log10 Kd with Kd in nM; a lower number is a better binder. "nd" means that the variant was in the library but no mating with the target was seen in that replicate; the authors take this as a sign of poor binding, and no number exists. In this assay the parent's reference entry averaged 1.86; its copy inside this library read 0.88. As a blank, each scFv also met three strains without target: over library AAYL51, 21% of these pairings were detected, typically at 4.54 and seldom below 3.26. For each scFv, signals with the empty controls are counted beside the result, with their mean in brackets.

{"changes": "M34C+W53R+S55T", "log10 Kd (nM) by replicate": "4.94 / nd / nd", "signal with controls": "3 of 9 (3.49)"}
{"changes": "A33V+G56W+D107I", "log10 Kd (nM) by replicate": "4.28 / nd / nd", "signal with controls": "2 of 9 (4.05)"}
{"changes": "T28L+M34G+Y108P", "log10 Kd (nM) by replicate": "nd / nd / nd", "signal with controls": "0 of 9"}
{"changes": "F27N+N54Q+F106H", "log10 Kd (nM) by replicate": "nd / nd / nd", "signal with controls": "0 of 9"}
{"changes": "N54L+R101C+G104R", "log10 Kd (nM) by replicate": "nd / nd / 3.44", "signal with controls": "1 of 9 (3.43)"}
{"changes": "S55I+Y105W", "log10 Kd (nM) by replicate": "nd / nd / nd", "signal with controls": "0 of 9"}
{"changes": "D31C+A61P+D107S", "log10 Kd (nM) by replicate": "nd / nd / nd", "signal with controls": "1 of 9 (2.03)"}
{"changes": "G26Q+Y60E+A61P", "log10 Kd (nM) by replicate": "4.60 / nd / nd", "signal with controls": "0 of 9"}
{"changes": "G56C+G59S+G103V", "log10 Kd (nM) by replicate": "nd / 5.27 / nd", "signal with controls": "2 of 9 (4.31)"}
{"changes": "I51N+S57W+V99A", "log10 Kd (nM) by replicate": "2.59 / nd / nd", "signal with controls": "0 of 9"}
{"changes": "M34V+I51C+D107H", "log10 Kd (nM) by replicate": "4.92 / nd / 5.82", "signal with controls": "4 of 9 (5.40)"}
{"changes": "H35S+R101N+D107S", "log10 Kd (nM) by replicate": "4.46 / nd / nd", "signal with controls": "3 of 9 (4.80)"}
{"changes": "I51Q+N54Q", "log10 Kd (nM) by replicate": "4.55 / nd / nd", "signal with controls": "2 of 9 (4.72)"}
{"changes": "H35Q+K65H+R101N", "log10 Kd (nM) by replicate": "1.98 / 2.38 / 2.44", "signal with controls": "0 of 9"}
{"changes": "G26D+V64K+G104W", "log10 Kd (nM) by replicate": "nd / nd / 4.17", "signal with controls": "3 of 9 (4.61)"}
{"changes": "F27I+R101V", "log10 Kd (nM) by replicate": "nd / nd / nd", "signal with controls": "0 of 9"}
{"changes": "F27T+H35F+S55Y", "log10 Kd (nM) by replicate": "nd / nd / nd", "signal with controls": "1 of 9 (3.28)"}
{"changes": "N54S+Y60I+V99E", "log10 Kd (nM) by replicate": "4.78 / 5.31 / nd", "signal with controls": "2 of 9 (5.80)"}
{"changes": "A61M+V64P+R101V", "log10 Kd (nM) by replicate": "5.45 / 5.83 / nd", "signal with controls": "2 of 9 (4.38)"}
{"changes": "D31Y+G103M", "log10 Kd (nM) by replicate": "nd / nd / nd", "signal with controls": "0 of 9"}
{"changes": "Y32S+S55Q+D62F", "log10 Kd (nM) by replicate": "nd / nd / nd", "signal with controls": "2 of 9 (3.99)"}
{"changes": "H35Y+S55L+G102A", "log10 Kd (nM) by replicate": "nd / nd / nd", "signal with controls": "0 of 9"}
{"changes": "D62H+K65R+D107I", "log10 Kd (nM) by replicate": "3.95 / nd / nd", "signal with controls": "3 of 9 (4.22)"}
{"changes": "I51D+G56R+V64I", "log10 Kd (nM) by replicate": "4.60 / 4.68 / 4.36", "signal with controls": "4 of 9 (4.59)"}
{"changes": "T28A+F29D", "log10 Kd (nM) by replicate": "5.72 / 5.44 / 4.65", "signal with controls": "4 of 9 (5.16)"}
{"changes": "G56A+D62N+S63Y", "log10 Kd (nM) by replicate": "5.75 / 6.19 / nd", "signal with controls": "5 of 9 (5.28)"}

The closing 2 entries, repeated:

changes,log10 Kd (nM) by replicate,signal with controls
T28A+F29D,5.72 / 5.44 / 4.65,4 of 9 (5.16)
G56A+D62N+S63Y,5.75 / 6.19 / nd,5 of 9 (5.28)